The term inhibition denotes the relative decrease from the control value, in per cent.

Molecules are shown by their SMILES. The entries are a selection whose mix differs from that of the whole data set. Active and inactive are the calls of the source.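 The calls were made as follows: active = inhibition of at least 50% at 20 µM; inactive = the rest.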

The nature of the test: inhibition of PEG-3 promoter activity – cell-based, HeLa, luciferase luminescence, primary screen (AID 588405). The settings on record: HeLa PEG-Prom luciferase reporter, overnight, at 20 µM, hits give high values. (A reporter such as luciferase makes a cellular process visible.)
As for `O=C(O)CNc1ccc([As](=O)(O)O)cc1`, the inhibition is inactive: -2.95%.

Take `COC(=O)C1(C)COP(=O)(Nc2ccccc2)OC1` (configuration not stated): the inhibition was inactive: 8.66%.

For the compound `O=[N+]([O-])c1cccc(NC2=NCC(CBr)S2)c1` (configuration not stated), the inhibition was inactive: 8.59%.

Take `O=[N+]([O-])c1ncn(CCn2ncnc2[N+](=O)[O-])n1`: the inhibition is inactive: 1.78%.

Take `CC(C)(C)C(=O)NC(Sc1ccncn1)C(Cl)(Cl)Cl` (configuration not stated): the inhibition is inactive: 6.32%.

With `O=C(Nc1cc([As](=O)(O)O)ccc1O)c1ccccc1`, the inhibition was inactive: 3.65%.

For the compound `O=P1(N(CCCl)CCCl)OCCCS1` (configuration not stated), the inhibition is inactive: 20.7%.

For the compound `CC1CCN(C(=O)Oc2c(Cl)cc(Cl)c3cccnc23)CC1`, the inhibition was inactive: -7.77%.

Take `c1cc(-c2nn[nH]n2)ccc1-c1nn[nH]n1`: the inhibition is inactive: 7.01%.

Take `CC(C)c1nc(Nc2ccccc2)n(P(=O)(N(C)C)N(C)C)n1`: the inhibition was inactive: 4.74%.

Turning to `CC(C)=N/N=C(\N)N[N+](=O)[O-]`, the inhibition is inactive: -9.05%.

In the case of `CN(C)C(=O)OCCc1n(C)cc[n+]1C`, the inhibition is inactive: 6.44%.

With `CCN(/C(=N/P(=O)(N1CCOCC1)N1CCOCC1)N1CCOCC1)c1ccc(OC)cc1`, the inhibition was inactive: 12.7%.

`Nc1ccc([As](=O)(O)c2ccc(N)cc2)cc1`: the inhibition was inactive: -52.7%.

Regarding `C[N+]1=C2C=CC=CC=C2SC12C([N+](=O)[O-])=CC([N+](=O)[O-])=C[C-]2[N+](=O)[O-]` (configuration not stated), the inhibition was active: 75.8%.

For `Cc1ccc(NP(=O)(Oc2ccccc2)Oc2ccccc2)nc1`, the inhibition is inactive: -1.16%.

On to `CCc1nc2c(n1)c1c(non1O)c1c2no[n+]1[O-]`, for which the inhibition was inactive: 31.3%.

For `O=[N+]([O-])c1cc([N+](=O)[O-])c(CCNc2ccccc2)c([N+](=O)[O-])c1`, the inhibition is inactive: 4.06%.

With `O=[N+]([O-])c1cccc2n[nH]nc12`, the inhibition was inactive: 14.5%.

Take `CC(=O)N1C2C3N(C(C)=O)C1C1N(C(C)=O)C(C(N1C(C)=O)N3C(C)=O)N2C(C)=O`: the inhibition was inactive: 20.9%.

Turning to `COc1ccc(C2=NCC(CBr)S2)cc1` (configuration not stated), the inhibition was inactive: -12.1%.

With `O=[N+]([O-])C1C(O)C(O)C([N+](=O)[O-])C(O)C1O` (configuration not stated), the inhibition is inactive: 8.27%.

`Oc1ccccc1CNc1ccccn1`: the inhibition is inactive: -36.3%.

As for `O=C(NC(Sc1ccncn1)C(Cl)(Cl)Cl)c1ccccc1` (configuration not stated), the inhibition is inactive: 3.66%.

As for `Nc1cc(N)c2nonc2c1[N+](=O)[O-]`, the inhibition was inactive: 7.06%.

For `CC(C)CC(=O)NC(Sc1ccc(Cl)cc1)C(Cl)(Cl)Cl` (configuration not stated), the inhibition was inactive: 9.45%.

`CN1CCCC(OC(=O)C(c2ccccc2)c2ccccc2)C1` (configuration not stated): the inhibition was inactive: -3.2%.

In the case of `Clc1ccc(Cl)c(NC2=NCC(CBr)S2)c1` (configuration not stated), the inhibition was inactive: 3.31%.

Take `COc1ccccc1OP(=O)(Nc1ccc(C)cn1)Oc1ccccc1OC`: the inhibition is inactive: 17%.

Take `Cc1ccc(OP(=O)(Nc2nccs2)Oc2ccc(C)cc2)cc1`: the inhibition was inactive: 14.3%.

In the case of `CN(C(=O)Cc1ccc(Cl)c(Cl)c1)[C@H]1CCCC[C@H]1N1CCCC1`, the inhibition is inactive: -9.88%.

On to `Cc1ccc(N/C(=N/P(=O)(N2CCOCC2)N2CCOCC2)N2CCOCC2)cc1`, for which the inhibition was inactive: 30.2%.

For `NC(=O)c1cc([N+](=O)[O-])cc([N+](=O)[O-])c1N`, the inhibition was inactive: 1.26%.

As to `Nc1cccc2ccc([As](=O)(O)O)cc12`, the inhibition is inactive: 12%.

Consider `CCN(N=Nc1nonc1N)c1nonc1N`, for which the inhibition was inactive: 15.7%.

On to `Cc1cc(SC(NC(=O)c2ccc(F)cc2)C(Cl)(Cl)Cl)ncn1` (configuration not stated), for which the inhibition was inactive: 10.2%.

Regarding `CCOP(=O)(Nc1ccccc1)OCC`, the inhibition is inactive: 2.08%.

On to `Cc1ccc(NP(=O)(Oc2ccccc2F)Oc2ccccc2F)nc1`, for which the inhibition was inactive: 5.67%.

With `CN(C(=O)Cc1ccc(Cl)c(Cl)c1)[C@H]1CCCC[C@@H]1N1CCCC1`, the inhibition was inactive: -10%.

Take `O=P(Nc1nc2ccc(Cl)cc2s1)(c1ccccc1)c1ccccc1`: the inhibition is inactive: 21.6%.

In the case of `CN(C)P(=O)(N(C)C)n1c(Nc2ccccc2)nnc1-c1ccccc1`, the inhibition was inactive: -28.9%.

`CC(=O)Nc1ccc([As](=O)(O)O)cc1`: the inhibition is inactive: 2.05%.

In the case of `O=C(O)c1ccccc1[As](=O)(O)O`, the inhibition was inactive: 7.39%.

In the case of `CCCC1OP(N)(=O)OCC1CC` (configuration not stated), the inhibition was inactive: 6.78%.

With `CC(NC(=O)COC(=O)C(O)(c1ccccc1)c1ccccc1)c1ccccc1` (configuration not stated), the inhibition was inactive: 5.38%.

Take `Cc1ccccc1OP(=O)(Nc1ccccn1)Oc1ccccc1C`: the inhibition is inactive: 18.5%.

With `O=c1c2cc([N+](=O)[O-])ccc2[nH]c2c([N+](=O)[O-])cc([N+](=O)[O-])cc12`, the inhibition was active: 104%.

Consider `CN(C)C(=O)Oc1noc2ccccc12`, for which the inhibition was inactive: 0.67%.

For the compound `O=C(OC1CN2CCC1CC2)c1ccccc1` (configuration not stated), the inhibition was inactive: -6.56%.

In the case of `CCC(=O)N1C2C3N(C(=O)CC)C1C1N(C(=O)CC)C(C(N1C(=O)CC)N3C(=O)CC)N2C(=O)CC`, the inhibition was inactive: 6.36%.

`COC(=O)c1cc2c(s1)N=C(c1ccccc1)N(C)P2(=O)N1CCOCC1` (configuration not stated): the inhibition was inactive: 0.86%.

Consider `CC(=O)NC(SC(=S)N(CC(C)C)CC(C)C)C(Cl)(Cl)Cl` (configuration not stated), for which the inhibition is inactive: 4.38%.

`Cc1ccc(OP(=O)(Nc2ccccn2)Oc2ccc(C)cc2)cc1`: the inhibition was inactive: 10.1%.

For `O=P1(N(CCCl)CCCl)OCCC2CCCCN21` (configuration not stated), the inhibition was inactive: 13.9%.

Consider `c1ccc(-c2nn[nH]n2)c(-c2nn[nH]n2)c1`, for which the inhibition was inactive: -8.33%.

For the compound `Cc1ccc(NP(=O)(Oc2cccc(C)c2)Oc2cccc(C)c2)nc1`, the inhibition was inactive: 7.19%.

On to `CCNC(=S)/N=C(\N)N[N+](=O)[O-]`, for which the inhibition is inactive: 6.28%.

For `O=C(NC1CCS(=O)(=O)C1)NP(=S)(Oc1ccccc1)Oc1ccccc1` (configuration not stated), the inhibition was inactive: -4.07%.

With `CC(=O)Nc1ccc([As](=O)(O)O)c(O)c1`, the inhibition is inactive: -1.04%.

As for `CC(=O)Nc1ccc(Oc2c([N+](=O)[O-])cc([N+](=O)[O-])cc2[N+](=O)[O-])cc1`, the inhibition was inactive: 10.9%.

Regarding `Cc1ccccc1CN(C)C(=O)COC(=O)C(O)(c1ccccc1)c1ccccc1`, the inhibition was inactive: 4.95%.

As to `C[C@H]1OP(=O)(Oc2ccccc2)C[C@@H]2O[C@@H]21` (some centres not stated), the inhibition was inactive: 1.53%.

`C[C@@H]1C=CCP(=O)(Oc2ccccc2)O1` (some centres not stated): the inhibition was inactive: -1.28%.

`CC(=O)c1ccc(N2CC2c2ccncc2)cc1` (configuration not stated): the inhibition is inactive: 17.1%.

On to `N#C/C(=C\c1ccc(N(CCBr)CCBr)cc1)C(N)=O`, for which the inhibition is active: 68.8%.

With `COC(=O)C1(C)COP(=O)(NCc2ccccc2)OC1` (configuration not stated), the inhibition is inactive: 4.14%.

For `CC(C)(C)C(=O)NC(Sc1ccccc1)C(Cl)(Cl)Cl` (configuration not stated), the inhibition was inactive: 15.8%.

For `CCc1cc(O)c([N+](=O)[O-])c(C)c1[N+](=O)[O-]`, the inhibition was inactive: 7.52%.

On to `O=P1(Nc2nc3ccc(Cl)cc3s2)COc2ccccc2O1` (configuration not stated), for which the inhibition is inactive: -44%.

For `CCOc1ccc(C2=NCC(CBr)S2)cc1` (configuration not stated), the inhibition was inactive: -6.18%.

Regarding `c1nnnn1CCn1cnnn1`, the inhibition was inactive: -0.51%.

`CC(C)C(=O)NC(Sc1ccccc1)C(Cl)(Cl)Cl` (configuration not stated): the inhibition was inactive: 1.32%.

On to `O=P(Nc1nccs1)(c1ccccc1)c1ccccc1`, for which the inhibition is inactive: 1.01%.

Regarding `O=C(OC1CN2CCC1CC2)c1cccc(Cl)c1` (configuration not stated), the inhibition is inactive: 7.07%.

Regarding `C(Cc1nn[nH]n1)Cc1nn[nH]n1`, the inhibition was inactive: 4.47%.

As for `Nc1ccc([As](=O)(O)c2ccc([N+](=O)[O-])cc2)cc1`, the inhibition is inactive: 13.1%.

Consider `O=[As](O)(c1ccccc1)c1ccc(O)cc1`, for which the inhibition was inactive: -4.58%.

`O=[N+]([O-])c1ccc(O)c(/C=N/Nc2ccc([N+](=O)[O-])cc2[N+](=O)[O-])c1`: the inhibition is active: 56.1%.

For the compound `CC(=O)NC(SC(=S)N(C)C)C(Cl)(Cl)Cl` (configuration not stated), the inhibition is inactive: 15.7%.

As to `O=[N+]([O-])c1ncn(CCn2cnc([N+](=O)[O-])n2)n1`, the inhibition is inactive: -0.3%.

As to `O=P(Nc1nc2ccccc2s1)(c1ccccc1)c1ccccc1`, the inhibition was inactive: -3.85%.

Regarding `C[C@H]1OP(=O)(Oc2ccccc2)[C@H](O)[C@H](O)[C@H]1N=[N+]=[N-]` (some centres not stated), the inhibition is inactive: -3.81%.

`O=P(Nc1ccccn1)(c1ccc(Br)cc1)c1ccc(Br)cc1`: the inhibition was inactive: 18.5%.

For `CN(C)C1(CNC(=O)c2ccc(Cl)c(S(N)(=O)=O)c2)CCCCC1`, the inhibition is inactive: 5.6%.

As for `COc1ccc(N)c([N+](=O)[O-])c1[N+](=O)[O-]`, the inhibition was inactive: -8.84%.

`Nc1ccc(CCCCOc2ccccc2)cc1`: the inhibition was inactive: -240%.

For the compound `Nc1cccc([As](=O)(O)c2ccccc2)c1`, the inhibition was inactive: -0.7%.

For `Cc1ccc(OCC(=O)OC2CN3CCC2CC3)cc1` (configuration not stated), the inhibition is inactive: 12.9%.

In the case of `O=[As](O)(c1cccs1)c1cccs1`, the inhibition is inactive: 1.66%.

As for `O=P1(Nc2ccc(Br)cn2)COc2ccccc2OC1`, the inhibition was inactive: 4.52%.

With `NS(=O)(=O)c1cccc(NC(=O)COC(=O)C(O)(c2ccccc2)c2ccccc2)c1`, the inhibition is inactive: 7.65%.

For the compound `Cc1ccc(S(=O)(=O)N(CCCN)CCCc2c(C)nc(N)[nH]c2=O)cc1`, the inhibition was inactive: 4.24%.

For `O=P1(Nc2ncccn2)COc2ccccc2OC1`, the inhibition is inactive: 4.04%.

On to `CN(C)C1(CNC(=O)c2ccc(S(C)(=O)=O)cc2)CCCCC1`, for which the inhibition was inactive: -1.49%.

Take `O=C(/C=C/c1ccccc1)OC1CN2CCC1CC2` (configuration not stated): the inhibition is inactive: -7.81%.

Take `CCCC1OP(=O)(Nc2ccccc2)OCC1CC` (configuration not stated): the inhibition was inactive: -1.52%.

With `Cc1nn(-c2ccccc2)c2c1P(=O)(N1CCOCC1)N(C)C(c1ccccc1)=N2` (configuration not stated), the inhibition is inactive: 13.8%.

As to `CC1CCC(C(C)C)C(OP(=O)(Nc2ccccn2)c2ccccc2)C1` (configuration not stated), the inhibition is inactive: 20.9%.

Turning to `Cc1ccc(C(=O)OC2CN3CCC2CC3)cc1` (configuration not stated), the inhibition was inactive: 6.45%.

For `CC(C)/C=N\N=C(\N)N[N+](=O)[O-]`, the inhibition was inactive: 2.76%.

As to `CN(C(=O)Cc1ccc(Cl)c(Cl)c1)[C@@H]1CCCC[C@H]1N1CCCC1`, the inhibition is inactive: -0.09%.

Consider `CC1(CBr)Cn2c(nc3ccccc3c2=O)S1` (configuration not stated), for which the inhibition is inactive: 11.2%.

For the origin of these results see PubChem BioAssay AID588405 (Sanford-Burnham Center for Chemical Genomics, 2011).
